Measured values as given in US20130216530A1, “Methods for optimizing biological response modifier therapy using therapeutic drug monitoring of immunosuppressants” (Exagen Diagnostics, Inc., priority 2012, published 2013).

Experiment: RBC MTXPG3 levels in RA patients measured by liquid chromatography
Type: in vivo, human
Settings: all 61 RA patients on weekly MTX, red blood cells
Procedure: Adult RA patients receiving weekly MTX with infliximab for more than three months were enrolled in a cross sectional study. Blood was collected at trough before the infusion of infliximab. Red blood cell (RBC) MTXPGs were measured using liquid chromatography while circulating levels of infliximab were measured using a cell based assay. ATIs were measured using enzyme immunoassays. Statistical analysis consisted of regression analyses and Wilcoxon tests.
The study was cross sectional study in adult RA patients at three study sites (Brigham and Women's, Boston, Mass.; The Center for Rheumatology, Albany, N.Y.; and Altoona Center for Clinical Research, Altoona Pa.). […] RBC MTXPG3 were measured using a liquid chromatography developed and validated in our laboratory^9. Quantification limit was 5 nmol/L RBCs. Circulating levels of infliximab in serum were measured by Biomonitor (Copenhagen, DK) using a cell based assay consisting of erythroleukemic K562 cells transfected with a NFKB regulated firefly luciferase reporter-gene construct^10. Antibodies to infliximab (ATIs) were measured using a proprietary enzyme immunoassay technique (Biomonitor, Copenhagen, Denmark). The cutoff for positive ATI was 0.9 U/L. Anti-citrullinated peptide auto-antibodies levels (Anti-MCV) were measured using ELISA (Orgentec Diagnostika, Mainz, Germany). […]

In the case of methotrexate polyglutamate [MTXPG], the “median RBC MTXPG3 levels” value is reported as 28 nmol/L.
